According to patent publication EP0415219A1, “ANF-Antagonist” (F. HOFFMANN-LA ROCHE AG, priority 1989, dated 1991):

Biological target: ANF Rezeptor (Membranpräparation von Rindernebennieren)
Test: Binding test: displacement of radiolabelled ANF from its receptor (membrane preparation of bovine adrenal glands)
Parameters: species or system Rind
Details: inhibition of ¹²⁵I-ANF (18,2 pM) binding, 24 h at 4°C; read-out: IC₅₀
Method: In einem Bindungstest nach Bürgisser et al. [Biochem. Biophys. Res. Comm. 133, 1201 (1985)] wurde die Verdrängung von radioaktiv-markiertem ANF von dessen Rezeptor durch den ANF-Antagonisten gemessen. Als Rezeptorpräparation wurde eine Membranpräparation von Rindernebennieren verwendet. Zu 100 µl dieser Präparation in 50 mM Tris/HCl, 500 mM MgCl₂, 1 mM EDTA. 0,5% Rinderserumalbumin und 1 mM o-Phenanthrolin, pH 7,6, wurden ¹²⁵I-ANF (20'000 cpm. 18,2 pM) in 145 µl dieses Puffers und der Ligand in 5 µl Dimethylsulfoxid gegeben. Diese Mischung wurde 24 Stunden bei 4°C inkubiert und gebundenes von freiem ANF durch schnelle Filtration über Whatman GF/C Glasfaserfilter abgetrennt. Nach dreimaligem Waschen der Filter mit obigem Puffer (3 x 4 ml) wurden die Filter zerschnitten und deren Radioaktivität im Gamma-Zähler gemessen. Die Inhibition der Bindung wurde quantitativ mit der IC₅₀ erfasst, worunter diejenige Konzentration an entsprechendem Liganden zu verstehen ist, bei der die Bindung von ¹²⁵I-ANF halbmaximal gehemmt wird. Tabelle

## CC[C@H](C)[C@@H]1NC(=O)[C@H](CCCNC(=N)N)NC(=O)[C@H](CC(=O)O)NC(=O)[C@H]([C@@H](C)CC)NC(=O)[C@H](CCCNC(=N)N)NC(=O)CNC(=O)CNC(=O)[C@H](Cc2ccccc2)NC(=O)[C@@H](NC(=O)[C@H](CO)NC(=O)[C@H](CO)NC(=O)[C@H](CCCNC(=N)N)NC(=O)[C@H](CCCNC(=N)N)NC(=O)[C@H](CC(C)C)NC(=O)[C@@H](N)CO)CSSC[C@@H](C(=O)N[C@@H](CC(N)=O)C(=O)N[C@@H](CO)C(=O)N[C@@H](Cc2ccccc2)C(=O)N[C@@H](CCCNC(=N)N)C(=O)N[C@@H](Cc2ccc(O)cc2)C(=O)O)NC(=O)CNC(=O)[C@H](CC(C)C)NC(=O)CNC(=O)[C@H](CO)NC(=O)[C@H](CCC(N)=O)NC(=O)[C@H](C)NC(=O)CNC1=O [Ratten ANF (99-126), reference compound]
  IC50: 0.11 nM
